Values of other authors in publication PMC9993015.

Molecular target: histone H3 (Homo sapiens) (UniProt P68431)
Settings: cited from earlier work

**Q.** With FMRP (from UniProt Q06787) as the substance, how does the Kd read?
**A.** 0.135 µM
